Measurements taken from patent US6444852B1, “Amines useful in inhibiting gas hydrate formation” (Goldschmidt Chemical Corporation, priority 1999, dated 2002).

Test: Behavior (solubility/dispersibility) in water and […] brine at 5% concentration
Assay type: physicochemical
Conditions: 5% concentration as is
Description: The compounds tested are set forth in the following Table 1, CE# denotes a comparative example, whereas S# denotes a compound of the present invention.

Question: For “C12-C14 oxypropyl dibutyl ammonium hydrobromide [Sample S7]”, which “Behavior in Water” value is on record?
Answer: The value was “Soluble”.
